Measurements: PubChem BioAssay AID624171 (National Center for Advancing Translational Sciences (NCATS), 2012)
Only a part is listed here, and it is no random draw. Calls of active or inactive are those of the source. The call rests on the fitted dose curve; in most records, active means well fitted activation curve with a large enough effect; inconclusive means small, poorly fitted or top-dose-only effect; inactive means flat fitted curve, though single readings scatter.

Assay: qHTS of Nrf2 Activators; further: % of control where 0% means no effect; nearly all actives have a fitted effect of over 65% in size
Details: AREc32 ARE-luciferase reporter (MCF7-derived line), luminescence, 24 h; at 46.1 µM (top of the series) unless noted
Method in brief: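 Luciferase luminescence (Steady-Glo, 30 min at room temperature) served as the read-out of ARE activation in AREc32 cells treated with compounds for 24 hr at 37 deg C.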

Row | Compound | activation
1 | N#Cc1ccc(C(=O)NCC2(N3CCCCC3)CCCCC2)cc1 | inactive: 0.394%
2 | O=C(NCC1(N2CCOCC2)CCCCC1)c1ccccc1[N+](=O)[O-] | inactive: -0.211%
3 | CC(C)(C)n1nnnc1C(c1cccc2ccccc12)N1CCC(n2c(=O)[nH]c3ccccc32)CC1 (stereo not given) | inactive: -1.73%
4 | c1ccc(CN2CCC(Nc3ccccc3)CC2)cc1 | inactive: 2.79%
5 | Cc1cc(N(CCCl)CCCl)ccc1C=O | inactive: 4.06%
6 | O=C(NCC1(N2CCOCC2)CCCCC1)c1ccccc1 | inactive: -0.91%
7 | O=c1[nH]c2ccccc2n1C1CCN(C(c2ccccc2)c2nnnn2C2CCCC2)CC1 (stereo not given) | inactive: 3.94%
8 | CCCN1CCC(Nc2cc(OC)cc(OC)c2)CC1 | inactive: 3.07%
9 | CN(C)C1(CNC(=O)c2cccc(C#N)c2)CCCCC1 | inactive: -0.699%
10 | Cc1ccc(NC2(C#N)CCN(Cc3ccccc3)CC2)cc1 | inactive: -0.713%
11 | Cc1ccc(C(=O)NCC2(N3CCCCC3)CCCCC2)o1 | inactive: -0.662%
12 | Fc1ccccc1NC1CCN(Cc2ccccc2)CC1 | inactive: 0.301%
13 | COc1cc(OC)cc(C(=O)NCC2(N3CCCCC3)CCCCC2)c1 | inactive: 0.921%
14 | O=c1[nH]c2ccccc2n1C1CCN(C(c2ccnc3ccccc23)c2nnnn2C2CCCCC2)CC1 (stereo not given) | inactive: -0.778%
15 | COc1cccc(C(c2nnnn2C2CCCCC2)N2CCC(n3c(=O)[nH]c4ccccc43)CC2)c1OC (stereo not given) | inactive: -0.299%
16 | CN(C)C1(CNC(=O)c2ccc(C(C)(C)C)cc2)CCCCC1 | inactive: 3.54%
17 | CC(=O)N(c1ccccc1)C1CCNCC1 | inactive: 0.0468%
18 | CCC(c1nnnn1C1CCCCC1)N1CCC(n2c(=O)[nH]c3ccccc32)CC1 (stereo not given) | inactive: 0.43%
19 | O=C(NCC1(N2CCCCC2)CCCCC1)c1ccco1 | inactive: -1.22%
20 | CC(C)(C)c1ccc(C(=O)NCC2(N3CCOCC3)CCCCC2)cc1 | inactive: 3.48%

Row | Compound | activation
21 | CN(C)c1ccc(C(=O)NCC2(N3CCCCC3)CCCCC2)cc1 | inactive: -0.465%
22 | Cn1c(=O)[nH]cc(N(CCCl)CCCl)c1=O | inactive: 0.272%
23 | Cc1ccccc1C(=O)NCC1(N(C)C)CCCCC1 | inactive: -0.884%
24 | Cc1ccccc1NC1(C#N)CCN(Cc2ccccc2)CC1 | inactive: -0.737%
25 | CCN1CCC(Nc2cccc(F)c2)CC1 | inactive: -0.0738%
26 | COc1ccc(C(c2nnnn2C2CCCCC2)N2CCC(n3c(=O)[nH]c4ccccc43)CC2)cc1 (stereo not given) | inactive: -0.657%
27 | CC(C)(C)n1nnnc1C(c1ccnc2ccccc12)N1CCC(n2c(=O)[nH]c3ccccc32)CC1 (stereo not given) | inactive: 3.04%
28 | O=c1[nH]c2ccccc2n1C1CCN(C(c2cc3ccccc3o2)c2nnnn2C2CCCC2)CC1 (stereo not given) | inactive: 0.829%
29 | CCCOc1ccc(C(=O)NCC2(N(C)C)CCCCC2)cc1 | inactive: 0.261%
30 | CC(C)(C)OC(=O)N1CCC(Nc2ccccc2)CC1 | inactive: -0.0434%
31 | O=C(O)C1(Nc2ccccc2)CCN(Cc2ccccc2)CC1 | inactive: -0.206%
32 | NN(c1ccccc1)C1CCN(CCc2ccccc2)CC1 | inactive: 1.2%
33 | CCOc1ncccc1C(=O)NCC1(N2CCOCC2)CCCCC1 | inactive: -0.625%
34 | CN1CCC(Nc2ccc(F)c(Cl)c2)CC1 | inactive: -0.236%
35 | CN1CCC(Nc2ccc(Cl)cc2)CC1 | inactive: -0.0717%
36 | CCC(CO)(C(=O)OC1CN2CCC1CC2)c1ccccc1 (stereo not given) | inactive: -0.59%
37 | COc1cccc(C(c2nnnn2C2CCCC2)N2CCC(n3c(=O)[nH]c4ccccc43)CC2)c1OC (stereo not given) | inactive: 6.06%
38 | COc1cc(OC)cc(C(=O)NCC2(N3CCOCC3)CCCCC2)c1 | inactive: -0.23%
39 | COc1cc(C(=O)NCC2(N3CCOCC3)CCCCC2)cc(OC)c1OC | inactive: -0.139%
40 | COc1cccc(C(=O)N(c2cc(C)cc(C)c2)C2CCN(C(=O)OC(C)(C)C)CC2)c1 | inactive: -0.483%
